Source: ChEMBL document CHEMBL5634084, “Design and optimization of selective and potent CDK9 inhibitors with flavonoid scaffold for the treatment of acute myeloid leukemia” (Eur J Med Chem, 2023)

What was measured:
Homo sapiens [1] = species: Homo sapiens; test: Selectivity ratio of IC50 for inhibition of CDK7/CyclinH/MAT1 (unknown origin) to IC50 for inhibition of CDK9/CyclinT1 (unknown origin)
Homo sapiens [2] = species: Homo sapiens; test: Selectivity ratio of IC50 for inhibition of CDK6/CyclinD1 (unknown origin) to IC50 for inhibition of CDK9/CyclinT1 (unknown origin)
Homo sapiens [3] = species: Homo sapiens; test: Selectivity ratio of IC50 for inhibition of CDK1/CyclinA2 (unknown origin) to IC50 for inhibition of CDK9/CyclinT1 (unknown origin)
Homo sapiens [4] = species: Homo sapiens; test: Selectivity ratio of IC50 for inhibition of CDK2/CyclinA2 (unknown origin) to IC50 for inhibition of CDK9/CyclinT1 (unknown origin)

COc1cc(O)c2c(=O)cc(-c3ccc(N4CCN(C)CC4)cc3)oc2c1N1CCNCC1
Ratio IC50 (Homo sapiens [1]): 60 | Ratio IC50 (Homo sapiens [2]): 60 | Ratio IC50 (Homo sapiens [3]): 60 | Ratio IC50 (Homo sapiens [4]): 40

COc1cc(O)c2c(=O)cc(-c3ccc(N4CCN(C)CC4)cc3)oc2c1C1=CCN(C)CC1
Ratio IC50 (Homo sapiens [1]): 80 | Ratio IC50 (Homo sapiens [2]): 80 | Ratio IC50 (Homo sapiens [3]): 80 | Ratio IC50 (Homo sapiens [4]): 80
